Sequences of proteins named here, by UniProt entry; tags and fusion partners are left off. Residues count along the entry.
UniProt P01116, 1-188 isoform 2 G12D: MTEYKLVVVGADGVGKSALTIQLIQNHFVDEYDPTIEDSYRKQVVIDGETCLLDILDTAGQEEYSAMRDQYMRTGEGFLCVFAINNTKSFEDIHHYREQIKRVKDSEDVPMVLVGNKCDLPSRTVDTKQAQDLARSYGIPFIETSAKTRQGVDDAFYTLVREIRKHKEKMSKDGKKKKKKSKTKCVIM
UniProt P01116, 1-188 isoform 2 G12V: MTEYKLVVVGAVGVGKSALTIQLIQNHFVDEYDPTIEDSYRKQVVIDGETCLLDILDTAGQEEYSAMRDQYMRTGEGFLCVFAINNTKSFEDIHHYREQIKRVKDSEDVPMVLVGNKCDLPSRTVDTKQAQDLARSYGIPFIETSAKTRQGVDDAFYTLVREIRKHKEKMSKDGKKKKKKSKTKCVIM

According to patent US20240358702A1, “CYCLIC UREA KRAS INHIBITORS” (INCYTE CORPORATION, priority 2023, published 2024):

How the values were obtained:
[1] = target: KRAS G12V (Homo sapiens, UniProt P01116, G12V); test: GDP-GTP exchange assay (bodipy-GDP/GppNHp, SOS1), KRAS G12V; details: read-out: G12V_exchange; KRAS_G12V exchange assay IC50; value for the most potent isomer quoted
Description: (§1) The inhibitor potency of the exemplified compounds was determined in a fluorescence based guanine nucleotide exchange assay, which measures the exchange of bodipy-GDP (fluorescently labeled GDP) for GppNHp (Non-hydrolyzable GTP analog) to generate the active state of KRAS in the presence of SOS1 (guanine nucleotide exchange factor). Inhibitors were serially diluted in DMSO and a volume of 0.1 μL was transferred to the wells of a black low volume 384-well plate. 5 μL/well volume of bodipy-loaded KRAS G12D diluted to […] in assay buffer (25 mM Hepes pH 7.5, 50 mM NaCl, 10 mM mgCl2 and 0.01% Brij-35) was added to the plate and pre-incubated with inhibitor for 4 h at ambient temperature. Appropriate controls (enzyme with no inhibitor or with a G12D inhibitor) were included on the plate. The exchange was initiated by the addition of a 5 μL/well volume containing 1 mM GppNHp and 300 nM SOS1 in assay buffer. The 10 μL/well reaction concentration of the bodipy-loaded KRAS G12D, GppNHp, and SOS1 were 2.5 nM, 500 uM, and 150 nM, respectively. The reaction plates were incubated at ambient temperature for 2 h, a time estimated for complete GDP-GTP exchange in the absence of inhibitor. […] Fluorescence intensities were measured on a PheraStar plate reader instrument (BMG Labtech) with excitation at 485 nm and emission at 520 nm. […]

[2] = target: KRAS G12D (Homo sapiens, UniProt P01116, G12D); test: GDP-GTP exchange assay (bodipy-GDP/GppNHp, SOS1), KRAS G12D; details: KRAS_G12D exchange assay IC50; 4 h pre-incubation; value for the most potent isomer quoted
Description: as §1

Structure (SMILES): COc1ncccc1N1CCCN([C@H](C)c2cc3c(C)nc4c(F)c(-c5cccc(Cl)c5Cl)c(CCC#N)cc4c3n2[C@H]2[C@H]3CN[C@@H]2C3)C1=O
- IC50 [1]: 100 to 1000 nM
- G12D_exchange [2]: †
